Results published in ChEMBL document CHEMBL5579828, “Novel thiosemicarbazide-based β-carboline derivatives as α-glucosidase inhibitors: Synthesis and biological evaluation” (Eur J Med Chem, 2024).
The source made the active and inactive calls.

Experiments:
Format in all cases: functional, organism-based
Mus musculus [1] = assay: Antidiabetic activity in STZ-induced diabetic SPF C57/6J male mouse model assessed as reduction in blood glucose at 50 mg/kg/day, po administered for 25 days followed by glucose administration on 25th day and measured after 0 to 150 mins by OGTT; details: time 25.0 day
Mus musculus [2] = assay: Antidiabetic activity in STZ-induced diabetic SPF C57/6J male mouse model assessed as decrease in fasting blood glucose at 50 mg/kg/day, po administered for 4 weeks
Mus musculus [3] = assay: Antidiabetic activity in STZ-induced diabetic SPF C57/6J male mouse model assessed as decrease in serum TG level at 50 mg/kg/day, po administered for 4 weeks
Mus musculus [4] = assay: Antidiabetic activity in STZ-induced diabetic SPF C57/6J male mouse model assessed as decrease in serum TC level at 50 mg/kg/day, po administered for 4 weeks

Measured: Activity

C[C@H]1O[C@H](O[C@H]2[C@H](O)[C@@H](O)[C@@H](O[C@H]3[C@H](O)[C@@H](O)C(O)O[C@@H]3CO)O[C@@H]2CO)[C@H](O)[C@@H](O)[C@@H]1N[C@H]1C=C(CO)[C@@H](O)[C@H](O)[C@H]1O (some centres undefined)
active: all assays above
